Laboratory results: patent US20220331442A1, “ANTIBODY-BIOMOLECULE CONJUGATES LINKED THROUGH MULTIFUNCTIONAL MACROMOLECULE AND USES THEREOF” (LEVIM BIOTECH LLP, priority 2018, published 2022)

System: H23 NSCLC cells
Assay: MTT cytotoxicity assay

cetuximab: monoclonal antibody used as the targeting moiety for human epidermal growth factor receptor (EGFR)
Cytotoxicity (MTT) (0.5 μM test substance, presence of siRNA and gefitinib 0, 0.1, 0.5, 1 and 5 μM, FIG. 21(a)): negligible toxicity
Cytotoxicity (MTT) (absence of siRNA and TKI (gefitinib), FIG. 18): negligible toxicity
